{"source": "patent US10894782B2", "about": "“Modulators of P97 AAA ATPase activity” (University of Pittsburgh—Of the Commonwealth System of …, priority 2016, dated 2021)", "target": "P97 (Homo sapiens (Human), UniProt P55072)", "experiment": "P97 Biomolgreen ATPase assay, 200 μM ATP", "assay_type": "biochemical", "settings": "read-out: P97 Biomolgreen", "data": [{"smiles": "Cc1cc(OCc2nnc(SC3C=CCCC3)n2-c2cccnc2)ccc1C#CCOC(=O)NC1CCN(C)CC1", "note": "(stereo not shown)", "values": [{"measurement": "IC50", "result": 15, "unit": "nM"}]}]}
